From patent US20100322919A1

What was measured:
[1] = molecular target: cancer-associated variant of IkBβ2 (Homo sapiens (Human)) (UniProt Q15653); experiment: flow cytometry on SK-OV-3 ovary tumor cells, VB1-204 at 100 µg/mL
[2] = molecular target: cancer-associated variant of IkBβ2 (Homo sapiens (Human)) (UniProt Q15653); experiment: flow cytometry on MB-231 breast tumor cells, VB1-204 at 100 µg/mL
[3] = molecular target: cancer-associated variant of IkBβ2 (Homo sapiens (Human)) (UniProt Q15653); experiment: flow cytometry on A-549 lung tumor cells, VB1-204 at 100 µg/mL
[4] = molecular target: cancer-associated variant of IkBβ2 (Homo sapiens (Human)) (UniProt Q15653); experiment: flow cytometry on DU-145 prostate tumor cells, VB1-204 at 100 µg/mL
[5] = molecular target: cancer-associated variant of IkBβ2 (Homo sapiens (Human)) (UniProt Q15653); experiment: flow cytometry saturation curve on A-375 tumor cells, 2 hours, Lineweaver-Burk method
[6] = molecular target: cancer-associated variant of IkBβ2 (Homo sapiens (Human)) (UniProt Q15653); experiment: flow cytometry on SK-BR-3 breast tumor cells, VB1-204 at 100 µg/mL
[7] = molecular target: cancer-associated variant of IkBβ2 (Homo sapiens (Human)) (UniProt Q15653); experiment: two color flow cytometry on C33A cervix cells, VB1-204 at 25 µg/mL, 2 hours at 4° C.
[8] = molecular target: cancer-associated variant of IkBβ2 (Homo sapiens (Human)) (UniProt Q15653); experiment: two color flow cytometry on DU-145 prostate cells, VB1-204 at 25 µg/mL, 2 hours at 4° C.
[9] = molecular target: cancer-associated variant of IkBβ2 (Homo sapiens (Human)) (UniProt Q15653); experiment: flow cytometry on CFPac-1 pancreas tumor cells, VB1-204 at 100 µg/mL
[10] = molecular target: cancer-associated variant of IkBβ2 (Homo sapiens (Human)) (UniProt Q15653); experiment: flow cytometry on MB-435S breast tumor cells, VB1-204 at 100 µg/mL
[11] = molecular target: cancer-associated variant of IkBβ2 (Homo sapiens (Human)) (UniProt Q15653); experiment: flow cytometry on Panc-1 pancreas tumor cells, VB1-204 at 100 µg/mL
[12] = molecular target: cancer-associated variant of IkBβ2 (Homo sapiens (Human)) (UniProt Q15653); experiment: flow cytometry on Hep-G2 liver tumor cells, VB1-204 at 100 µg/mL

- MF (mean-fold increase in median fluorescence over the control antibody) [1]: 13.3 fold
- MF (mean-fold increase in median fluorescence over the control antibody) [2]: 54.2 fold
- MF (mean-fold increase in median fluorescence over the control antibody) [3]: 16.3 fold
- MF (mean-fold increase in median fluorescence over the control antibody) [4]: 22.9 fold
- Kd [5]: 5 nM
- MF (mean-fold increase in median fluorescence over the control antibody) [6]: 22.1 fold
- percent of cells bound [7]: 92.5%
- percent of cells bound [8]: 96.8%
- MF (mean-fold increase in median fluorescence over the control antibody) [9]: 57.7 fold
- MF (mean-fold increase in median fluorescence over the control antibody) [10]: 16.7 fold
- MF (mean-fold increase in median fluorescence over the control antibody) [11]: 12.8 fold
- MF (mean-fold increase in median fluorescence over the control antibody) [12]: 29.4 fold
Substance: VB1-204 monoclonal antibody
